Calls of active or inactive are those of the source. The calls are words filed in the database; no cut-off is given here.
Assays:
[1] = molecular target: Receptor tyrosine-protein kinase erbB-2 (Homo sapiens) (UniProt P04626); test: Inhibition of ERBB2 (unknown origin) at < 10 uM
[2] = molecular target: Muscarinic acetylcholine receptor M1 (Homo sapiens) (UniProt P11229); test: Inhibition of muscarinic M1 receptor (unknown origin) at < 10 uM
[3] = molecular target: Histamine H3 receptor (Homo sapiens) (UniProt Q9Y5N1); test: Inhibition of Histamine H3 receptor (unknown origin) at < 10 uM
[4] = molecular target: Vascular endothelial growth factor receptor 2 (Homo sapiens) (UniProt P35968); test: Inhibition of KDR (unknown origin) at < 10 uM

By UniProt entry, the sequences of proteins in these tests, tags left out. Where a name states a change or a piece, a line headed by the entry shows the natural chain unless it says otherwise.
UniProt P11229: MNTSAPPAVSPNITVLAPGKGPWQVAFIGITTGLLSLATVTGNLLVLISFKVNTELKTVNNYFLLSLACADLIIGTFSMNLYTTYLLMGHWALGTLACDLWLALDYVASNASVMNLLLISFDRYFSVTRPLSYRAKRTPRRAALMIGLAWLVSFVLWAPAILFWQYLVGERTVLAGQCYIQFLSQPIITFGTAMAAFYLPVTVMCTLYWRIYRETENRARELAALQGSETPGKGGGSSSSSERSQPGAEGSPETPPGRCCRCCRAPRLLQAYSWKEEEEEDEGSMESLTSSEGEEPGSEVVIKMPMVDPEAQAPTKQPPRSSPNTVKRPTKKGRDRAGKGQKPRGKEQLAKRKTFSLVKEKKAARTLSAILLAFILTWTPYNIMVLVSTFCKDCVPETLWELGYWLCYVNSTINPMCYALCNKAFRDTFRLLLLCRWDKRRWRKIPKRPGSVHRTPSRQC
UniProt Q9Y5N1: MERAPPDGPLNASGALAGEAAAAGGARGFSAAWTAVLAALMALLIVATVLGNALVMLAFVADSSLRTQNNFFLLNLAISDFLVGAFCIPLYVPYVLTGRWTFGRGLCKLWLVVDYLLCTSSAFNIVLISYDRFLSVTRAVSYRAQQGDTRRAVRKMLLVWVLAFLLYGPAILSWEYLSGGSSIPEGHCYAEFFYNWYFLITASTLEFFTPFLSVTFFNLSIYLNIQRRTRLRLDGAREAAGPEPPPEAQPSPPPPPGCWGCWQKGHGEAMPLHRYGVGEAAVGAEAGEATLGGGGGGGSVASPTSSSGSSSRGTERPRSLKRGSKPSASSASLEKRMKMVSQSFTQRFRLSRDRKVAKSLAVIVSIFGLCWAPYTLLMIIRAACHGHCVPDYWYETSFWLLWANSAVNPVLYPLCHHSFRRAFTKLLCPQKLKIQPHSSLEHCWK
UniProt P35968, whole entry: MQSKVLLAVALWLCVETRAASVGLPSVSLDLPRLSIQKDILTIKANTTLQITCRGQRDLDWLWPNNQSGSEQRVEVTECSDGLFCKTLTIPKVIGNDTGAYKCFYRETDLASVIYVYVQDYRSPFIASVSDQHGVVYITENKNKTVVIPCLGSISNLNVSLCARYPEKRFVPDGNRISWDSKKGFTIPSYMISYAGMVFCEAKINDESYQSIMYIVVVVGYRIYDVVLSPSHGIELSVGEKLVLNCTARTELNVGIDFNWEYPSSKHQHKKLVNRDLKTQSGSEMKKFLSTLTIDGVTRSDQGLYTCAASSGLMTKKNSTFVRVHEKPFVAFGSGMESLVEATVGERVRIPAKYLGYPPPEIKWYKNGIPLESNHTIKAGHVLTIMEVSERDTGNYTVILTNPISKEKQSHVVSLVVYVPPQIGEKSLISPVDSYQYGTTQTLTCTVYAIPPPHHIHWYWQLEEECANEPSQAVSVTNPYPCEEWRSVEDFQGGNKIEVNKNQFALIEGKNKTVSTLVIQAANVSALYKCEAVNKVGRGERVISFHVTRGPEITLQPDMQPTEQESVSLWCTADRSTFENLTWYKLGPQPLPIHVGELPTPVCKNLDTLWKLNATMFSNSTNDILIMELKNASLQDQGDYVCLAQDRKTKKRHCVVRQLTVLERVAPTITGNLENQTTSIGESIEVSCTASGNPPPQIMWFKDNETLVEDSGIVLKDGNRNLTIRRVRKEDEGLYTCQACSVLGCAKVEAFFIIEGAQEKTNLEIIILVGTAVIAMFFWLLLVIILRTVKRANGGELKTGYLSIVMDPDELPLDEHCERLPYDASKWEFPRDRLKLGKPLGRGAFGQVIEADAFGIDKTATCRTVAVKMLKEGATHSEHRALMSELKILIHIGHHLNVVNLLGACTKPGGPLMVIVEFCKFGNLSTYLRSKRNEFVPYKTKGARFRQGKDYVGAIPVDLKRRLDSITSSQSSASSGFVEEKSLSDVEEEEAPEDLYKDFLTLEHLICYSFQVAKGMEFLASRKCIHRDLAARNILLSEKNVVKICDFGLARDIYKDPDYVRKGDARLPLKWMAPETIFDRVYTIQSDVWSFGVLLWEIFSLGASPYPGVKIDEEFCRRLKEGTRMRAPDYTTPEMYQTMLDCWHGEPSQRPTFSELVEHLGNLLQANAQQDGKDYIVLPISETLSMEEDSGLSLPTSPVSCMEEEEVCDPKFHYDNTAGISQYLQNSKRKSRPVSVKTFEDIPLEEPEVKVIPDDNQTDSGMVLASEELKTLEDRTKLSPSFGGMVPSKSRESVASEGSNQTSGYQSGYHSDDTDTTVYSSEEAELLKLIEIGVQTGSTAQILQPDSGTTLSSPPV

Structure (SMILES)	inhibition [1]	inhibition [2]	inhibition [3]	inhibition [4]
c1cc(-c2ccc(Oc3ccc(CN4CCCCC4)nc3)nc2)[nH]n1	Active	Active	Active	Active
OC1CCN(Cc2ccc(Oc3ccc(-c4ccn[nH]4)cn3)cn2)CC1	inactive	inactive	inactive	inactive
c1cc(-c2ccc(Oc3ccc(CN4CCCC4)nc3)nc2)[nH]n1	Active	Active	Active	Active
